Source: patent US11041000B2, “Peptide inhibitors of interleukin-23 receptor and their use to treat inflammatory diseases” (priority 2019, dated 2021)

Sequences of proteins named here, by UniProt entry; tags and fusion partners are left off. Residues count along the entry.
UniProt Q5VWK5, 24-629 limits assumed: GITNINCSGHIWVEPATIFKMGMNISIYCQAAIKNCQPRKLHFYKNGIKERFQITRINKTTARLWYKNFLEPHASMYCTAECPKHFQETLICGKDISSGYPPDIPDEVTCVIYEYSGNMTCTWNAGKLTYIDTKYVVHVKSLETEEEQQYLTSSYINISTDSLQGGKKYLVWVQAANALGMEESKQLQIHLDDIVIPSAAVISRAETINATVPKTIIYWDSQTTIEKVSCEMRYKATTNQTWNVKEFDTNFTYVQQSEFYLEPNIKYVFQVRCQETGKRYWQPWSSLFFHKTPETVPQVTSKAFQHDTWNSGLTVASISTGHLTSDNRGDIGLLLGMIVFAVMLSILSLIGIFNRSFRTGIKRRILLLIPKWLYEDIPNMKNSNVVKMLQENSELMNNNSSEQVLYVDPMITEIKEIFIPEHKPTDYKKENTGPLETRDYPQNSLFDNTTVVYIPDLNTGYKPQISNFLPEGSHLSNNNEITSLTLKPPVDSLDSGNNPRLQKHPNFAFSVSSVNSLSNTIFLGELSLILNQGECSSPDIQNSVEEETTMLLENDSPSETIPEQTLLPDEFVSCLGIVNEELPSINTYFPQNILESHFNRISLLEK

Key:
[1] = Stability in simulated intestinal fluid (SIF); assay type: in vitro ADME; conditions: simulated intestinal fluid with pancreatin, pH 6.8, 37° C., matrix is 100 fold dilution of standard SIF concentration
[2] = Stability in simulated gastric fluid (SGF); assay type: in vitro ADME; conditions: simulated gastric fluid with porcine pepsin, pH 2, 37° C., 20 μM peptide
Method: SGF was prepared by adding 20 mg NaCl, 32 mg porcine pepsin (MP Biochemicals, catalog 02102599), and 70 μl HCl to 10 ml water (final pH=2). Aliquots of SGF (0.5 ml each) were pre-warmed at 37° C. To start the reaction, 1 μl of peptide stock solution (10 mM in DMSO) was added to 0.5 ml SGF and thoroughly mixed such that the final peptide concentration was 20 μM. The reactions were incubated at 37° C. with gentle shaking. At each time point (0, 15, 30, 60 min) 50 μl aliquots were removed and added to 200 ul acetonitrile containing 0.1% formic acid to quench the reaction.

[3] = molecular target: IL-23R-expressing DB cells (Homo sapiens, UniProt Q5VWK5); test: DB cells IL23R pSTAT3 cell assay (pStat3HTRF); assay type: cell-based; conditions: DB cells stimulated with IL-23 0.5 nM, 30 minutes, phospho-STAT3 in cell lysates; read-out: pStat3 HTRF
Text: Human ELISA indicates the IL23-IL23R competitive binding assay described below, Rat ELISA indicates the rat IL-23R competitive binding ELISA assay described below, and pStat3HTRF indicates the DB cells IL-23R pSTAT3 cell assay described below. The peptides depicted in Table E1 are cyclized via a disulfide bridge formed between two Pen residues in these peptides. The peptides depicted in Table E2 are cyclized via a thioether bond between the indicated amino acid residues. Table E2 provides an illustrative structure depicting thioether cyclization, which is indicated in the table by the term “cyclo,” with the cyclic region bracketed immediately following the term “cyclo.” For certain peptides, the residue Abu is present where indicated, whereas in other embodiments, e.g., those related to the non-cyclized form, the Abu may be referred to as a hSer(Cl) or homoSer residue. The petpides depicted in Table E3 are cyclized via a disulfide bridge formed between two Pen residues or a thioether bond between Abu and Cys.
IL-23 plays a central role in supporting and maintaining Th17 differentiation in vivo. […] Changes in phospho-STAT3 levels in the cell lysates were detected using the Cisbio HTRF pSTAT3 (Tyr705) Cellular Assay Kit (Cisbio #62AT3PEH), according to manufacturer's Two Plate Assay protocol. Where not shown, data was not yet determined.

[4] = Stability in human fecal homogenate; assay type: in vitro ADME; conditions: 20% fecal homogenate (supernatant), pH 6.8, 20% human fecal homogenate, anaerobic, 37° C., read-out: t½: Human Feces anaerobic
Method: (§1) Centrifuged the homogenate at 2800×g for 15 min. The supernatant is taken out and used for incubations. […] The final test compound concentration was 20 μM.

[5] = Stability in cynomolgus monkey fecal homogenate; assay type: in vitro ADME; conditions: 20% fecal homogenate (supernatant), pH 6.8, 20% cynomolgus monkey fecal homogenate, anaerobic, 37° C., read-out: t½: Monkey Feces anaerobic
Method: as §1

Stability in rat plasma = assay type: in vitro ADME; conditions: both sexes, SD rat plasma, EDTA, 37° C., read-out: t½: Rat Plasma EDTA

CC(=O)NCCCC[C@H](NC(=O)[C@](C)(CC(C)C)NC(=O)[C@H](Cc1ccc2ccccc2c1)NC(=O)[C@H](Cc1ccc(OCCN)cc1)NC(=O)[C@H]1NC(=O)[C@H](CCC(N)=O)NC(=O)[C@H](Cc2c[nH]c3c(C)cccc23)NC(=O)[C@H]([C@@H](C)O)NC(=O)[C@H](CC(N)=O)NC(=O)[C@@H](NC(C)=O)C(C)(C)SSC1(C)C)C(=O)N[C@@H](Cc1c[nH]cn1)C(=O)NCCC(N)=O [compound 214]
SIF t½ ([1]; 20 μM): 24 h
SGF t½ [2]: 24 h

CC(=O)NCCCC[C@H](NC(=O)[C@](C)(CCCCN)NC(=O)[C@H](Cc1ccc2ccccc2c1)NC(=O)[C@H](Cc1ccc(OCCN)cc1)NC(=O)[C@H]1NC(=O)[C@H](CCCCNC(=O)Cc2ccccc2)NC(=O)[C@H](Cc2c[nH]c3c(C)cccc23)NC(=O)[C@H]([C@@H](C)O)NC(=O)[C@H](CC(N)=O)NC(=O)[C@@H](NC(C)=O)C(C)(C)SSC1(C)C)C(=O)N[C@@H](CC(N)=O)C(=O)N[C@H](CC(C)C)C(N)=O [compound 318]
IC50 [3]: 1.9 nM

CC(=O)NCCCC[C@@H]1NC(=O)[C@H](Cc2c[nH]c3c(C)cccc23)NC(=O)[C@H]([C@@H](C)O)NC(=O)[C@H](CC(N)=O)NC(=O)[C@@H](NC(C)=O)C(C)(C)SSC(C)(C)[C@@H](C(=O)N[C@@H](Cc2ccc(OCCN)cc2)C(=O)N[C@@H](Cc2ccc3ccccc3c2)C(=O)N[C@@](C)(CCCCN)C(=O)N[C@@H](CCCCNC(=O)Cc2ccccc2)C(=O)N[C@@H](CC(N)=O)C(=O)N[C@H](CC(C)C)C(N)=O)NC1=O [compound 359]
half-life at 20 μM ([1]; read-out: SIF t½ (converted)): 660 min
half-life at 20 μM [4]: > 1440 min
half-life at 20 μM [5]: > 1440 min
half-life at 20 μM (Stability in rat plasma): > 1440 min
